# Patent publication US20180086837A1 (Ablynx, published 2018)
# Protein sequences, listed by entry. Tags and fused reporters are not part of them.
# UniProt P61073, whole entry F189V: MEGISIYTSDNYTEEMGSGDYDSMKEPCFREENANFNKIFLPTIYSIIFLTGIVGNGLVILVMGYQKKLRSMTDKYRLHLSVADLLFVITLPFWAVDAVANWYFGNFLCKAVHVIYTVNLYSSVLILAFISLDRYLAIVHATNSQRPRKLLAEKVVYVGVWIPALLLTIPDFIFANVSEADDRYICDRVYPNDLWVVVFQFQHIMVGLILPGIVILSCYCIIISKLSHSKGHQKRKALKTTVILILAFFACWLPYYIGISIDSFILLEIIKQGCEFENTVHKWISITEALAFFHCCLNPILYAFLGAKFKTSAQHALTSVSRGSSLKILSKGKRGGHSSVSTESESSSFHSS
# UniProt P61073, whole entry D187V: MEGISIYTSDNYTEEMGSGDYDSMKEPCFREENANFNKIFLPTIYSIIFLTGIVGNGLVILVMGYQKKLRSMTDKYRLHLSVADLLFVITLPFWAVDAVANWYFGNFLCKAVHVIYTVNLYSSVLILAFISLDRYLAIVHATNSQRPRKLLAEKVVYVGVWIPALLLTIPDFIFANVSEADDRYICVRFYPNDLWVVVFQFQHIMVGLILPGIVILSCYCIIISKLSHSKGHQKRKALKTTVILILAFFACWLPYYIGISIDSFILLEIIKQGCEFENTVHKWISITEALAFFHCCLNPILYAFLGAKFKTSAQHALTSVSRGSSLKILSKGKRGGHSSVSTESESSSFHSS
# B1: Nanobody 281D4 (VHH)
# VHH: EVQLVESGGGLVQAGGSLRLSCAASGGTFNNYAMGWFRRAPGKEREFVAAISRSGVRTGVSALYGDSVKDRFTISRDNAKNTLYLQMNKMKPEDTAVYTCAASAIGSGALRRFEYDSSGQGTQVTVSS
# notes: Purified Nanobody
# B2: Nanobody 10C3 (VHH)
# VHH: EVQLVESGGGLVQPGGSLRLSCAASGTIFSTSTMGWYSQAPGKQRELVADITFLGSAKYADSVKGRFTISRDKIKNTVYLQMNSLKPEDTAAYYCNARQSTFRGVHYNYWGQGTQVTVSS
# notes: also called 10C03
# B3: Nanobody 15A1 (VHH)
# VHH: EVQLVESGGGLVQAGGSLRLSCAASGRTFSRAAMGWFRQAPGKEREFVGCALSSAGSALTADSVKGRFTISRDNAKNMVYLQMNNLKPEDTAVYSCVAGGYCTRAGVYPYWGQGTQVTVSS
# notes: also called 15A01
# B4: Nanobody 15G11 (VHH)
# VHH: EVQLVESGGGLVQAGDSLRVSCAASGRTSSYAMAWFRQAPGKEREFVGTISRTNSRTKYADFVEGRFTISRDNAKSTLSLQMTSLKPEDTAVYYCAAKWTGNSYHDYTWSKVDEYNVWGQGTQVTVSS
# Biological target: T1, hCXCR4 F189V (human, UniProt P61073 1-352)
# T1 construct: whole, on cells
# Assay: flow cytometry, transfected HEK293T cells, 10 nM, normalised to 12G5
row,Binder,% binding relative to hCXCR4
1,B1,0.5%
2,B2,0.9%
3,B3,0.8%
4,B4,0.1%

# Biological target: T2, hCXCR4 D187V (human, UniProt P61073 1-352)
# T2 construct: whole, on cells
# Assay: as above
row,Binder,% binding relative to hCXCR4
1,B1,0.9%
2,B2,12.8%
3,B3,115%
4,B4,35.4%

# Biological target: T1, hCXCR4 F189V
# Assay: flow cytometry, transfected HEK293T cells, 100 nM, normalised to 12G5
row,Binder,% binding relative to hCXCR4
1,B1,0.5%
2,B2,0.6%
3,B3,1.9%
4,B4,0.1%

# Biological target: T2, hCXCR4 D187V
# Assay: as above
row,Binder,% binding relative to hCXCR4
1,B1,0.6%
2,B2,24.7%
3,B3,108%
4,B4,50.3%
